In ChEMBL document CHEMBL5113514 (J Med Chem, 2022):

Experiment: Toxicity in Swiss albino mouse assessed as effect on spontaneous locomotor activity administered intraperitonially measured at 10 mins interval for 30 mins
Conditions: in vivo, ip, 0.5 h

With `C[C@H](C(=O)NCc1ccccc1F)N1C(=O)CCC1=O` as the compound, how does the Activity read?
Its Activity is “Dde”.
